From patent US11214565B2, “Compound, compositions, and methods” (Denali Therapeutics Inc., priority 2015, dated 2022) come the findings set out here.

Chains of the proteins cited; added tags and fusions are not shown.
UniProt Q5S007, whole entry G2019S: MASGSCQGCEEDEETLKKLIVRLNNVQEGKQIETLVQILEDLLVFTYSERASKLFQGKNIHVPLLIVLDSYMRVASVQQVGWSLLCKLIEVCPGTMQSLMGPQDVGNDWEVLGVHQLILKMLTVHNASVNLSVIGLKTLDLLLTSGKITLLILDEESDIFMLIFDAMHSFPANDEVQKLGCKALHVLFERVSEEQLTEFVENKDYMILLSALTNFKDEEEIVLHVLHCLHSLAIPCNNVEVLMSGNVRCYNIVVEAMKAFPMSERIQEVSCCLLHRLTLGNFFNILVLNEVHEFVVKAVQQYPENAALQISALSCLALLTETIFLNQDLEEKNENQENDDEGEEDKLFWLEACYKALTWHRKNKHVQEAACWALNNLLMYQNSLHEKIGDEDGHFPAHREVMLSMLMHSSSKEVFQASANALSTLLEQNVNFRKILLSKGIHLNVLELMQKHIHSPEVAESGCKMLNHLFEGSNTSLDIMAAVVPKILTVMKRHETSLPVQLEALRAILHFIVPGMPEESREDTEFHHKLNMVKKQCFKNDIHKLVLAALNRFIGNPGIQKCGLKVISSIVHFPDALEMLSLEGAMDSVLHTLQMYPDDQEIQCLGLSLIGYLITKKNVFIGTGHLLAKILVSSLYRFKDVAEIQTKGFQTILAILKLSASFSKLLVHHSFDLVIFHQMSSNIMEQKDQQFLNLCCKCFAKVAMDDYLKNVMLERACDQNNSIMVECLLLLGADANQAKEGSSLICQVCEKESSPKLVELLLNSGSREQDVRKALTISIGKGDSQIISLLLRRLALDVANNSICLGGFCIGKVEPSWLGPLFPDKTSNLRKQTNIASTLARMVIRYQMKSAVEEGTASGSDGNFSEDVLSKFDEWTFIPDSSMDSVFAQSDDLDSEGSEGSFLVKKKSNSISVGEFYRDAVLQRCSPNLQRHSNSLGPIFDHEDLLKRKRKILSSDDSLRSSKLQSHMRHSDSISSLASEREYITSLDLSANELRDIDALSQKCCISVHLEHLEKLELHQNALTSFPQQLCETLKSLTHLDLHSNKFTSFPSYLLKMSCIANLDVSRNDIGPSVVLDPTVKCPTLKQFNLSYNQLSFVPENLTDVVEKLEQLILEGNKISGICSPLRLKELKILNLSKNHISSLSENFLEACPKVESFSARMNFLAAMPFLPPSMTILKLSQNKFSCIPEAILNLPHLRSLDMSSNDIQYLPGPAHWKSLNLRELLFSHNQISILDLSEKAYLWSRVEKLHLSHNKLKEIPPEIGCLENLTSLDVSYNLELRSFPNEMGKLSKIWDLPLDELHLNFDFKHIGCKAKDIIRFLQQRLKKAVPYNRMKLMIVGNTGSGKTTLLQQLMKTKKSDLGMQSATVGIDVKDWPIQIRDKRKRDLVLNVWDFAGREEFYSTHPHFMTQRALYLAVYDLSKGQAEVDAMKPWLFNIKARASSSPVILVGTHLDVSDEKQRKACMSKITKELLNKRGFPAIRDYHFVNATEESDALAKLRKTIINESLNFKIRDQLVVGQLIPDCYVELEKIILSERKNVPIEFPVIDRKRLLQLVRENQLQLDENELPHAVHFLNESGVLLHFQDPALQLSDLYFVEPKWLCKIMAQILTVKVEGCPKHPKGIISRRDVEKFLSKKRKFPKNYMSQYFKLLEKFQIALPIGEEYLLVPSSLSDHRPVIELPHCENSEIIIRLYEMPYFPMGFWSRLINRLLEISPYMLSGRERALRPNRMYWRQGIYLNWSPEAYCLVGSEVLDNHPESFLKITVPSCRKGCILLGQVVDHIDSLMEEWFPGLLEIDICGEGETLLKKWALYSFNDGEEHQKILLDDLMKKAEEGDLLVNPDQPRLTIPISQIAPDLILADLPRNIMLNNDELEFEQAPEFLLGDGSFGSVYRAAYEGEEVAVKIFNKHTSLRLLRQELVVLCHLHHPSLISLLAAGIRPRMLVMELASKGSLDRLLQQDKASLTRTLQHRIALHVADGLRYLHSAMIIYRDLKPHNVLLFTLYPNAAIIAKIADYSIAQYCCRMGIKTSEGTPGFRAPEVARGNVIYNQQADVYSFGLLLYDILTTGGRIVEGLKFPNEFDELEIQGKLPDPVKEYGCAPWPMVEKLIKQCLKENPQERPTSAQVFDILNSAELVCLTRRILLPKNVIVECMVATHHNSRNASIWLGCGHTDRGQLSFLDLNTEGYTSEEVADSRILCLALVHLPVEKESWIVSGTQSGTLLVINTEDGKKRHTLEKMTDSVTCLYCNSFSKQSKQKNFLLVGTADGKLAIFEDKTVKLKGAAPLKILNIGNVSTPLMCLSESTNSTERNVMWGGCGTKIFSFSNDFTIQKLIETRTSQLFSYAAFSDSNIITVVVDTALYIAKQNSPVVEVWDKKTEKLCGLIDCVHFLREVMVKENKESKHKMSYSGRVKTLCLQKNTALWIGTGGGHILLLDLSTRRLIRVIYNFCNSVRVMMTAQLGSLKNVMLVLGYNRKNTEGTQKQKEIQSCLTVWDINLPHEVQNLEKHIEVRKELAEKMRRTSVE

Usually IC50 stands for the point on the concentration scale where inhibition reaches its midpoint.

Like-named read-outs stand apart in the source and are kept apart here.

This experiment concerns the target LRRK2 G2019S enzyme (Homo sapiens (Human), UniProt Q5S007, G2019S). As to the kind of experiment: LRRK2 G2019S TR-FRET biochemical kinase assay (LRRKtide substrate). Conditions: read-out: LRRK2 G2019S IC50, 5 nM LRRK2, 134 μM ATP, 60 minute reaction, 23° C. (Time-resolved FRET reads energy transfer from a long-lived donor to a nearby acceptor.)

For the molecule `Cc1nn(C(F)F)cc1Nc1nc(C2CC2)c2nc[nH]c2n1`, where the note is “Table C-2”, the IC50 lay in the range of 0.05 to 0.1 µM.

For the molecule `CNc1nc(Nc2cn(C3CCn4cncc43)nc2C)ncc1C(F)(F)F` (single isomer, unassigned), under “Table D-4”, the IC50 was in the range of 0.03 to 0.06 µM. Still for that read-out and setting: next, `CCNc1nc(Nc2cnn(C(C)COC(F)F)c2C)ncc1C(F)(F)F` (single isomer, unassigned): under 0.03 µM. Still for that read-out and setting: in the case of `CCOc1nc(Nc2cn(C3CCn4ccnc43)nc2C)ncc1C(F)(F)F` (single isomer, unassigned) it was under 0.03 µM.

Turning to `Cc1c(Nc2ncc(C(F)(F)F)c(C3CC3)n2)cnn1C1CCNC1=O` (single isomer, unassigned), under “Table A-2”, the IC50 was over 0.06 µM. With `CCNc1nc(Nc2cn(C3CCn4ccnc43)nc2Cl)ncc1C(F)(F)F` (single isomer, unassigned), the IC50 (Table D-4) is under 0.03 µM.
